From PMC6138654

Biological target: αβ-tubulin (tubulin dimer; as free tubulin, Tau-induced microtubules or Taxol-stabilized microtubules) (lamb (purified from lamb brains))

k of MTSL label release (thiol-disulfide exchange) by EPR, h(−1)/h(0) against time; Induced-MTs, 10 µM labeled protein, 1:2 with tubulin, 37 °C: 0.23 min⁻¹
k of MTSL label release (thiol-disulfide exchange) by EPR, h(−1)/h(0) against time; Taxol-MTs, 10 µM labeled protein, 1:2 with tubulin, 37 °C: 0.054 min⁻¹
Substance: Tau labeled with MTSL on its two natural cysteines (Tau^MTSL) (from UniProt P10636-8 1-441) (natural protein)
